These compounds were tested on JAK1-dependent STAT6 phosphorylation downstream of IL-13 stimulation in BEAS-2B cells.

Point of comparison: `CN(C)C(=O)CN1CCN(CC2CCN(C(=O)Cn3cc(Nc4nc5c(N6CC7CCC(C6)N7C(=O)CCC(F)(F)F)cccn5n4)cn3)CC2)CC1` [Example 75, N,N-dimethyl-2-[4-[[1-[2-[4-[[8-[8-(4,4,4-trifluorobutanoyl)-3,8-diazabicyclo[3.2.1]octan-3-yl]-[1,2,4]triazolo[1,5-a]pyridin-2-yl]amino]pyrazol-1-yl]acetyl]-4-piperidyl]methyl]piperazin-1-yl]acetamide], IC50 436 nM. Against it:
- CN1CCN(C(=O)Cn2cc(Nc3nc4c(N5CC6CCCC(C5)N6C(=O)N5CC(C(F)(F)F)C5)cccn4n3)cn2)CC1 [Example 122, 1-(4-methylpiperazin-1-yl)-2-[4-[[8-[9-[3-(trifluoromethyl)azetidine-1-carbonyl]-3,9-diazabicyclo[3.3.1]nonan-3-yl]-[1,2,4]triazolo[1,5-a]pyridin-2-yl]amino]pyrazol-1-yl]ethanone] — 9-fold lower, 48.4 nM
- CN1CCN(C(=O)Cn2cc(Nc3nc4c(N5CC6CCC(C5)N6C(=O)CCC(F)(F)F)cccn4n3)cn2)CC1 [Example 5, 4,4,4-trifluoro-1-[3-[2-[[1-[2-(4-methylpiperazin-1-yl)-2-oxo-ethyl]pyrazol-4-yl]amino]-[1,2,4]triazolo[1,5-a]pyridin-8-yl]-3,8-diazabicyclo[3.2.1]octan-8-yl]butan-1-one] — 16-fold lower, 27 nM
- CN1CCN(C(=O)Cn2cc(Nc3nc4c(N5CC6CCCC(C5)N6C(=O)CC5CC(F)(F)C5)cccn4n3)cn2)CC1 [Example 97, 2-(3,3-difluorocyclobutyl)-1-[3-[2-[[1-[2-(4-methylpiperazin-1-yl)-2-oxo-ethyl]pyrazol-4-yl]amino]-[1,2,4]triazolo[1,5-a]pyridin-8-yl]-3,9-diazabicyclo[3.3.1]nonan-9-yl]ethanone] — 13-fold lower, 32.5 nM
- CN1CCN(C(=O)Cn2cc(Nc3nc4c(N5CC6CCC(C5)N6Cc5cccc(C#N)c5)cccn4n3)cn2)CC1 [Example 55, 3-[[3-[2-[[1-[2-(4-methylpiperazin-1-yl)-2-oxo-ethyl]pyrazol-4-yl]amino]-[1,2,4]triazolo[1,5-a]pyridin-8-yl]-3,8-diazabicyclo[3.2.1]octan-8-yl]methyl]benzonitrile] — 14-fold lower, 30.2 nM
- CN1CCN(C(=O)Cn2cc(Nc3nc4c(N5C[C@H]6CC[C@@H](C5)[C@H]6N(C)C(=O)CC(F)(F)F)cccn4n3)cn2)CC1 [Example 164, 3,3,3-trifluoro-N-methyl-N-[rac-(1S,5R)-3-[2-[[1-[2-(4-methylpiperazin-1-yl)-2-oxo-ethyl]pyrazol-4-yl]amino]-[1,2,4]triazolo[1,5-a]pyridin-8-yl]-3-azabicyclo[3.2.1]octan-8-yl]propanamide] — 6.6-fold lower, 66.1 nM
- CN1CCN(C(=O)Cn2cc(Nc3nc4c(N5CC6CCC(C5)N6CC5(CS(C)(=O)=O)CC5)cccn4n3)cn2)CC1 [Example 109, 1-(4-methylpiperazin-1-yl)-2-[4-[[8-[8-([1-(methylsulfonylmethyl)cyclopropyl]methyl]-3,8-diazabicyclo[3.2.1]octan-3-yl]-[1,2,4]triazolo[1,5-a]pyridin-2-yl]amino]pyrazol-1-yl]ethanone] — higher, > 1000 nM
- CN1CCN(C(=O)Cn2cc(Nc3nc4c(N5CC6CCC(C5)N6C(=O)COCC(F)(F)F)cccn4n3)cn2)CC1 [Example 45, 1-(4-methylpiperazin-1-yl)-2-[4-[[8-[8-[2-(2,2,2-trifluoroethoxy)acetyl]-3,8-diazabicyclo[3.2.1]octan-3-yl]-[1,2,4]triazolo[1,5-a]pyridin-2-yl]amino]pyrazol-1-yl]ethanone] — 6.5-fold lower, 67.1 nM
- CN1CCN(C(=O)Cn2cc(Nc3nc4c(N5CC6CCC(C5)N6C(=O)C5(C#N)CC5)cccn4n3)cn2)CC1 [Example 23, 1-[3-[2-[[1-[2-(4-methylpiperazin-1-yl)-2-oxo-ethyl]pyrazol-4-yl]amino]-[1,2,4]triazolo[1,5-a]pyridin-8-yl]-3,8-diazabicyclo[3.2.1]octane-8-carbonyl] cyclopropanecarbonitrile] — 11-fold lower, 40.1 nM
- CN1CCN(C(=O)Cn2cc(Nc3nc4c(N5C[C@H]6CC[C@@H](C5)[C@H]6OCc5cnn(C)c5)cccn4n3)cn2)CC1 [Example 95, 1-(4-methylpiperazin-1-yl)-2-[4-[[8-[(1S,5R)-8-[(1-methylpyrazol-4-yl)methoxy]-3-azabicyclo[3.2.1]octan-3-yl]-[1,2,4]triazolo[1,5-a]pyridin-2-yl]amino]pyrazol-1-yl]ethanone] — 4.4-fold lower, 98.8 nM
- CN1CCN(C(=O)Cn2cc(Nc3nc4c(N5CC6CCC(C5)N6C(=O)c5cccs5)cccn4n3)cn2)CC1 [Example 76, 1-(4-methylpiperazin-1-yl)-2-[4-[[8-[8-(thiophene-2-carbonyl)-3,8-diazabicyclo[3.2.1]octan-3-yl]-[1,2,4]triazolo[1,5-a]pyridin-2-yl]amino]pyrazol-1-yl]ethanone] — 13-fold lower, 32.6 nM
- CC(C(=O)N1CCN(C)CC1)n1cc(Nc2nc3c(N4CC5CCCC(C4)N5C(=O)CCC(F)(F)F)cccn3n2)cn1 (stereo not drawn) [Example 106, 4,4,4-trifluoro-1-[3-[2-[[1-[1-methyl-2-(4-methylpiperazin-1-yl)-2-oxo-ethyl]pyrazol-4-yl]amino]-[1,2,4]triazolo[1,5-a]pyridin-8-yl]-3,9-diazabicyclo[3.3.1]nonan-9-yl]butan-1-one] — 9.4-fold lower, 46.2 nM
- CC(C(=O)N1CCN(C)CC1)n1cc(Nc2nc3c(N4CC5CCC(C4)N5C(=O)C4CC(C(F)(F)F)C4)cccn3n2)cn1 (stereo not drawn) [Example 123, 1-(4-methylpiperazin-1-yl)-2-[4-[[8-[8-(3-(trifluoromethyl)-cyclobutanecarbonyl]-3,8-diazabicyclo[3.2.1]octan-3-yl]-[1,2,4]triazolo[1,5-a]pyridin-2-yl]amino]pyrazol-1-yl]propan-1-one] — 8.5-fold lower, 51.1 nM
- CSc1ccc(C(=O)N2C3CCC2CN(c2cccn4nc(Nc5cnn(CC(=O)N6CCN(C)CC6)c5)nc24)C3)cc1 [Example 99, 1-(4-methylpiperazin-1-yl)-2-[4-[[8-[8-(4-methylsulfanylbenzoyl)-3,8-diazabicyclo[3.2.1]octan-3-yl]-[1,2,4]triazolo[1,5-a]pyridin-2-yl]amino]pyrazol-1-yl]ethanone] — 4.3-fold lower, 102 nM
- CN1CCN(C(=O)Cn2cc(Nc3nc4c(N5CC6CCC(C5)N6Cc5ccccc5C#N)cccn4n3)cn2)CC1 [Example 63, 2-[[3-[2-[[1-[2-(4-methylpiperazin-1-yl)-2-oxo-ethyl]pyrazol-4-yl]amino]-[1,2,4]triazolo[1,5-a]pyridin-8-yl]-3,8-diazabicyclo[3.2.1]octan-8-yl]methyl]benzonitrile] — 9.2-fold lower, 47.2 nM
- O=C(Cn1cc(Nc2nc3c(N4CC5CCC(C4)N5C(=O)N4CC(C(F)(F)F)C4)cccn3n2)cn1)N1CCN(C2CSC2)CC1 [Example 94, 1-[4-(thietan-3-yl)piperazin-1-yl]-2-[4-[[8-[8-[3-(trifluoromethyl)azetidine-1-carbonyl]-3,8-diazabicyclo[3.2.1]octan-3-yl]-[1,2,4]triazolo[1,5-a]pyridin-2-yl]amino]pyrazol-1-yl]ethanone] — 7.9-fold lower, 54.9 nM
- CN1CCN(C(=O)Cn2cc(Nc3nc4c(N5CC6CCC(C5)N6C(=O)CC5CC5(F)F)cccn4n3)cn2)CC1 (stereo not drawn) [Example 16, 2-(2,2-difluorocyclopropyl)-1-[3-[2-[[1-[2-(4-methylpiperazin-1-yl)-2-oxo-ethyl]pyrazol-4-yl]amino]-[1,2,4]triazolo[1,5-a]pyridin-8-yl]-3,8-diazabicyclo[3.2.1]octan-8-yl]ethanone] — 5.2-fold lower, 83.3 nM
- CN(CC1(C#N)CC1)C1CCN(C(=O)Cn2cc(Nc3nc4c(N5CC6CCC(C5)N6C(=O)C5CC(C(F)(F)F)C5)cccn4n3)cn2)CC1 (stereo not drawn) [Example 192, 1-[[methyl-[1-[2-[4-[[8-[8-[3-(trifluoromethyl)cyclo-butanecarbonyl]-3,8-diazabicyclo[3.2.1]octan-3-yl]-[1,2,4]triazolo[1,5-a]alpyridin-2-yl]amino]pyrazol-1-yl]acetyl]-4-piperidyl]amino]methyl]-cyclopropanecarbonitrile] — 3.7-fold lower, 118 nM
- CN1CCN(C(=O)Cn2cc(Nc3nc4c(N5CC6CCC(C5)N6C(=O)C5C6CC(F)(F)CC65)cccn4n3)cn2)CC1 (stereo not drawn) [Example 49, 2-[4-[[8-[8-(3,3-difluorobicyclo[3.1.0]hexane-6-carbonyl)-3,8-diazabicyclo[3.2.1]octan-3-yl]-[1,2,4]triazolo[1,5-a]pyridin-2-yl]amino]pyrazol-1-yl]-1-(4-methylpiperazin-1-yl)ethanone] — 7.5-fold lower, 57.9 nM
- CN1CCN(C(=O)Cn2cc(Nc3nc4c(N5CC6CCC(C5)N6S(=O)(=O)CCCC(F)(F)F)cccn4n3)cn2)CC1 [Example 174, 1-(4-methylpiperazin-1-yl)-2-[4-[[8-[8-(4,4,4-trifluorobutylsulfonyl)-3,8-diazabicyclo[3.2.1]octan-3-yl]-[1,2,4]triazolo[1,5-a]pyridin-2-yl]amino]pyrazol-1-yl]ethanone] — 4.9-fold lower, 88.5 nM
- CN1CCN(C(=O)Cn2cc(Nc3nc4c(N5C[C@H]6CC[C@@H](C5)[C@H]6NCCC(F)(F)F)cccn4n3)cn2)CC1 [Example 145, 1-(4-methylpiperazin-1-yl)-2-(4-((8-((1R,5 S,8r)-8-((3,3,3-trifluoropropyl)amino)-3-azabicyclo[3.2.1]octan-3-yl)-[1,2,4]triazolo[1,5-a]pyridin-2-yl)amino)-1H-pyrazol-1-yl)ethanone] — within 1.5-fold, 440 nM
- CN1CCN(C(=O)Cn2cc(Nc3nc4c(N5CC6CCC(C5)N6C(=O)c5cnc(CC(F)(F)F)s5)cccn4n3)cn2)CC1 [Example 196] — 8.4-fold lower, 51.7 nM
- CN1CCN(C(=O)Cn2cc(Nc3nc4c(C5=CC6CCC(C5)N6C(=O)[C@H]5C[C@H](C(F)(F)F)C5)cccn4n3)cn2)CC1 (stereo partly drawn) [Example 24, 1-(4-methylpiperazin-1-yl)-2-[4-[[8-[8-[3-(trifluoromethyl)cyclobutanecarbonyl]-8-azabicyclo[3.2.1]oct-3-en-3-yl]-[1,2,4]triazolo[1,5-a]pyridin-2-yl]amino]pyrazol-1-yl]ethanone] — within 1.5-fold, 323 nM
- CN1CCN(C(=O)Cn2cc(Nc3nc4c(N5CC6CCC(C5)N6C(=O)CC5CC(F)(F)C5(F)F)cccn4n3)cn2)CC1 (stereo not drawn) [Example 91, 1-[3-[2-[[1-[2-(4-methylpiperazin-1-yl)-2-oxo-ethyl]pyrazol-4-yl]amino]-[1,2,4]triazolo[1,5-a]alpyridin-8-yl]-3,8-diazabicyclo[3.2.1]octan-8-yl]-2(2,2,3,3-tetrafluorocyclobutyl) ethanone] — 11-fold lower, 39.2 nM

From US10189836B2, “Therapeutic compounds, compositions and methods of use thereof” (Genentech, Inc., priority 2015, dated 2019)
